## Curated experimental data: melting point values

Values as listed in the OPERA 2.9 repository of K. Mansouri.

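OPERA's authors assembled the values from existing databases and did not measure them anew. The files give a single number for a compound and property, which may rest on several reports. Conditions of the individual experiments are not part of the data. The measured form (salt, isomer or mixture) is not always the one drawn. Some entries may be limits or estimates that an upstream database listed as plain numbers.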

Melting points are in °C.
"–" marks a cell with nothing listed here.

structure (SMILES) | name | MP (°C)
Cc1ccc(C(=O)CBr)cc1C | 2-Bromo-1-(3,4-dimethyl-phenyl)-ethanone | 64
Clc1ccc(-c2ccccc2Cl)cc1 | 2,4'-Dichlorobiphenyl | 43
COC1=CC=C2[C@H]3Cc4ccc(O)c5c4[C@@]2(CCN3C)[C@H]1O5 | Oripavine | 200.5
CCCCCCCCCCCOC(=O)c1ccccc1C(=O)OCCCCCCCCCCC | Diundecyl phthalate | -9
COC1=CC2=CC[C@H]3[C@@H]4[C@@H]5C[C@@H]5C(=O)[C@@]4(C)CC[C@@H]3[C@@]2(C)CC1 | – | 175
CCC1(CC=C(C)C)C(=O)NC(=O)NC1=O | 5-Ethyl-5-(3'-methylbut-2'-enyl)barbituric acid | 158
Cc1nc2ccccc2c(=O)n1-c1ccc(F)cc1 | 4(3H)-Quinazolinone, 3-(p-fluorophenyl)-2-methyl- | 135
CCCCOC(=O)c1ccccc1N | Butyl anthranilate | -2.5
Cc1cc(C=O)c(C)n1C1CCCCC1 | 1-Cyclohexyl-2,5-dimethyl-1H-pyrrole-3-carbaldehyde | 76
COC(=O)Cc1ccccc1 | Methyl phenylacetate | -14.54
ClCc1cc2c(cc1Br)OCO2 | 5-Bromo-6-(chloromethyl)-2H-1,3-benzodioxole | 64
c1ccc(COP(OCc2ccccc2)OCc2ccccc2)cc1 | Tribenzyl phosphite | -5.9
Clc1ccc(Cl)c(-c2c(Cl)c(Cl)cc(Cl)c2Cl)c1 | 2,2',3,5,5',6-Hexachlorobiphenyl | 100
Cc1cc(C(=O)CCl)c(C)[nH]1 | 2-Chloro-1-(2,5-dimethyl-1H-pyrrol-3-yl)ethan-1-one | 144
Clc1ccc(-c2ccc(Cl)c(Cl)c2)cc1Cl | – | 180
NS(=O)(=O)c1ccc(N2CCNCC2)cc1 | 4-piperazin-1-ylbenzenesulfonamide | 220
Cc1nnc(NC(=O)CCl)s1 | 2-Chloro-N-(5-methyl-1,3,4-thiadiazol-2-yl)acetamide | 231
CC[C@H]1CCC[C@H](O[C@H]2CC[C@H](N(C)C)[C@@H](C)O2)[C@@H](C)C(=O)C2=C[C@@H]3[C@@H](C=C[C@@H]4C[C@@H](O[C@@H]5O[C@@H](C)[C@H](OC)[C@@H](OC)[C@H]5OC)C[C@@H]34)[C@@H]2CC(=O)O1 | Spinosyn A | 84
Cc1nn(Cc2ccccc2)c(C)c1C(=O)O | 1-Benzyl-3,5-dimethyl-1H-pyrazole-4-carboxylic acid | 138
Clc1cc(Cl)c(-c2c(Cl)c(Cl)cc(Cl)c2Cl)cc1Cl | 2,2',3,4',5,5',6-Heptachloro-1,1'-biphenyl | 147
NNc1c([N+](=O)[O-])cc(C(F)(F)F)cc1[N+](=O)[O-] | [2,6-Dinitro-4-(trifluoromethyl)phenyl]hydrazine | 130
C=CCc1ccc(OC)cc1 | Estragole | 11.9
O=C(CCl)c1ccc(I)cc1 | 2-chloro-1-(4-iodophenyl)ethanone | 128
C=CC(=O)N(CC)CC | N,N-Diethylacrylamide | -98.35
ClCc1csc(-c2ccco2)n1 | 4-(chloromethyl)-2-(2-furyl)-1,3-thiazole | 77
CN1CCN(c2ccc(N)nc2)CC1 | 5-(4-Methylpiperazin-1-yl)pyridin-2-amine | 120
CC(Oc1ccc(Cl)cc1)C(=O)O (configuration not stated) | 2-(p-Chlorophenoxy)propionic acid | 112
CCCC[C@H]1C(=O)O[C@H](C)[C@H](NC(=O)c2cccc(NC=O)c2O)C(=O)O[C@@H](C)[C@@H]1OC(=O)CC(C)C | Antimycin A3 | 170
COc1ccc(Br)cc1CBr | 4-bromo-2-(bromomethyl)-1-methoxybenzene | 54.5
O=C1NC(=O)C2(CCCCC2)C(=O)N1 | 2,4-Diazaspiro(5.5)undecane-1,3,5-trione | 288
Cc1c(C(=O)c2cnn(C)c2O)ccc(S(C)(=O)=O)c1C1=NOCC1 | Topramezone | 222
COc1ncc(F)c2nc(S(=O)(=O)Nc3c(F)cccc3F)nn12 | Florasulam | 207.2
CC(C)CC(C)(C#N)N=NC(C)(C#N)CC(C)C (configuration not stated) | 2,2'-Azobis[2,4-dimethylvaleronitrile] | 54.2
CCCCC(CC)C(=O)OOC(C)(C)CC(C)(C)C (configuration not stated) | 2,4,4-Trimethylpentan-2-yl 2-ethylhexaneperoxoate | -28
O=C(O)c1cn(Cc2ccccc2)nn1 | 1-Benzyl-1H-1,2,3-triazole-4-carboxylic acid | 177
Brc1cc(Br)c(Oc2cc(Br)c(Br)cc2Br)cc1Br | 2,2',4,4',5,5'-Hexabromodiphenyl ether | 163
CCOP(=S)(OCC)OC(=O)/C(=N\OC)c1csc(N)n1 | – | 88
CC(=O)OC1N=C(c2ccccc2Cl)c2cc(Cl)ccc2N=C1O (configuration not stated) | – | 261
CCN1CCc2nc3ccccc3c(C(=O)O)c2C1 | – | 279
Cc1ccc(OCCN(CCCl)CCOc2ccc(C)cc2)cc1.Cl | – | 155
C[Se]C | Methane, selenobis- | -87.2